Measurements taken from article PMC3670694 (Biochemistry, 2013).

B1: LpxK (A. aeolicus LpxK) (Aquifex aeolicus VF5; E100A) (protein)
chain: MLRSSLLPFSYLYEKIINFRNTLYDKGFLKIKKLPVPVISVGNLSVGGSGKTSFVMYLADLLKDKRVCILSRGYKRKSKGTLIVSEYGNLKVSWEEAGDAPYLMAKLLPHVSVVASEDRYKGGLLALEKLSPEVFILDDGFQHRKLHRDLNILLLKKKDLKDRLLPAGNLREPLKEIRRADALVLTYQEVEPFEFFTGKPTFKMFREFCCLLNSDFEEVPFDILKEREVIAFSGLGDNGQFRKVLKNLGIKVKEFMSFPDHYDYSDFTPEEGEIYLTTPKDLIKLQGYENVFALNFKVKLEREEKLKKLIYRIFY
B2: LpxK (A. aeolicus LpxK) (Aquifex aeolicus VF5; E100Q) (protein)
chain: MLRSSLLPFSYLYEKIINFRNTLYDKGFLKIKKLPVPVISVGNLSVGGSGKTSFVMYLADLLKDKRVCILSRGYKRKSKGTLIVSEYGNLKVSWEEAGDQPYLMAKLLPHVSVVASEDRYKGGLLALEKLSPEVFILDDGFQHRKLHRDLNILLLKKKDLKDRLLPAGNLREPLKEIRRADALVLTYQEVEPFEFFTGKPTFKMFREFCCLLNSDFEEVPFDILKEREVIAFSGLGDNGQFRKVLKNLGIKVKEFMSFPDHYDYSDFTPEEGEIYLTTPKDLIKLQGYENVFALNFKVKLEREEKLKKLIYRIFY
B3: LpxK (A. aeolicus LpxK) (Aquifex aeolicus VF5; D138A) (protein)
chain: MLRSSLLPFSYLYEKIINFRNTLYDKGFLKIKKLPVPVISVGNLSVGGSGKTSFVMYLADLLKDKRVCILSRGYKRKSKGTLIVSEYGNLKVSWEEAGDEPYLMAKLLPHVSVVASEDRYKGGLLALEKLSPEVFILADGFQHRKLHRDLNILLLKKKDLKDRLLPAGNLREPLKEIRRADALVLTYQEVEPFEFFTGKPTFKMFREFCCLLNSDFEEVPFDILKEREVIAFSGLGDNGQFRKVLKNLGIKVKEFMSFPDHYDYSDFTPEEGEIYLTTPKDLIKLQGYENVFALNFKVKLEREEKLKKLIYRIFY
B4: LpxK (A. aeolicus LpxK) (Aquifex aeolicus VF5; D139A) (protein)
chain: MLRSSLLPFSYLYEKIINFRNTLYDKGFLKIKKLPVPVISVGNLSVGGSGKTSFVMYLADLLKDKRVCILSRGYKRKSKGTLIVSEYGNLKVSWEEAGDEPYLMAKLLPHVSVVASEDRYKGGLLALEKLSPEVFILDAGFQHRKLHRDLNILLLKKKDLKDRLLPAGNLREPLKEIRRADALVLTYQEVEPFEFFTGKPTFKMFREFCCLLNSDFEEVPFDILKEREVIAFSGLGDNGQFRKVLKNLGIKVKEFMSFPDHYDYSDFTPEEGEIYLTTPKDLIKLQGYENVFALNFKVKLEREEKLKKLIYRIFY
B5: LpxK (A. aeolicus LpxK) (Aquifex aeolicus VF5; H261A) (protein)
chain: MLRSSLLPFSYLYEKIINFRNTLYDKGFLKIKKLPVPVISVGNLSVGGSGKTSFVMYLADLLKDKRVCILSRGYKRKSKGTLIVSEYGNLKVSWEEAGDEPYLMAKLLPHVSVVASEDRYKGGLLALEKLSPEVFILDDGFQHRKLHRDLNILLLKKKDLKDRLLPAGNLREPLKEIRRADALVLTYQEVEPFEFFTGKPTFKMFREFCCLLNSDFEEVPFDILKEREVIAFSGLGDNGQFRKVLKNLGIKVKEFMSFPDAYDYSDFTPEEGEIYLTTPKDLIKLQGYENVFALNFKVKLEREEKLKKLIYRIFY
B6: LpxK (A. aeolicus LpxK) (Aquifex aeolicus VF5; S49A) (protein)
chain: MLRSSLLPFSYLYEKIINFRNTLYDKGFLKIKKLPVPVISVGNLSVGGAGKTSFVMYLADLLKDKRVCILSRGYKRKSKGTLIVSEYGNLKVSWEEAGDEPYLMAKLLPHVSVVASEDRYKGGLLALEKLSPEVFILDDGFQHRKLHRDLNILLLKKKDLKDRLLPAGNLREPLKEIRRADALVLTYQEVEPFEFFTGKPTFKMFREFCCLLNSDFEEVPFDILKEREVIAFSGLGDNGQFRKVLKNLGIKVKEFMSFPDHYDYSDFTPEEGEIYLTTPKDLIKLQGYENVFALNFKVKLEREEKLKKLIYRIFY
B7: LpxK (A. aeolicus LpxK) (Aquifex aeolicus VF5; K51A) (protein)
chain: MLRSSLLPFSYLYEKIINFRNTLYDKGFLKIKKLPVPVISVGNLSVGGSGATSFVMYLADLLKDKRVCILSRGYKRKSKGTLIVSEYGNLKVSWEEAGDEPYLMAKLLPHVSVVASEDRYKGGLLALEKLSPEVFILDDGFQHRKLHRDLNILLLKKKDLKDRLLPAGNLREPLKEIRRADALVLTYQEVEPFEFFTGKPTFKMFREFCCLLNSDFEEVPFDILKEREVIAFSGLGDNGQFRKVLKNLGIKVKEFMSFPDHYDYSDFTPEEGEIYLTTPKDLIKLQGYENVFALNFKVKLEREEKLKKLIYRIFY
B8: LpxK (A. aeolicus LpxK) (Aquifex aeolicus VF5; T52A) (protein)
chain: MLRSSLLPFSYLYEKIINFRNTLYDKGFLKIKKLPVPVISVGNLSVGGSGKASFVMYLADLLKDKRVCILSRGYKRKSKGTLIVSEYGNLKVSWEEAGDEPYLMAKLLPHVSVVASEDRYKGGLLALEKLSPEVFILDDGFQHRKLHRDLNILLLKKKDLKDRLLPAGNLREPLKEIRRADALVLTYQEVEPFEFFTGKPTFKMFREFCCLLNSDFEEVPFDILKEREVIAFSGLGDNGQFRKVLKNLGIKVKEFMSFPDHYDYSDFTPEEGEIYLTTPKDLIKLQGYENVFALNFKVKLEREEKLKKLIYRIFY
B9: LpxK (A. aeolicus LpxK) (Aquifex aeolicus VF5; S53A) (protein)
chain: MLRSSLLPFSYLYEKIINFRNTLYDKGFLKIKKLPVPVISVGNLSVGGSGKTAFVMYLADLLKDKRVCILSRGYKRKSKGTLIVSEYGNLKVSWEEAGDEPYLMAKLLPHVSVVASEDRYKGGLLALEKLSPEVFILDDGFQHRKLHRDLNILLLKKKDLKDRLLPAGNLREPLKEIRRADALVLTYQEVEPFEFFTGKPTFKMFREFCCLLNSDFEEVPFDILKEREVIAFSGLGDNGQFRKVLKNLGIKVKEFMSFPDHYDYSDFTPEEGEIYLTTPKDLIKLQGYENVFALNFKVKLEREEKLKKLIYRIFY
B10: LpxK (A. aeolicus LpxK) (Aquifex aeolicus VF5; D99A) (protein)
chain: MLRSSLLPFSYLYEKIINFRNTLYDKGFLKIKKLPVPVISVGNLSVGGSGKTSFVMYLADLLKDKRVCILSRGYKRKSKGTLIVSEYGNLKVSWEEAGAEPYLMAKLLPHVSVVASEDRYKGGLLALEKLSPEVFILDDGFQHRKLHRDLNILLLKKKDLKDRLLPAGNLREPLKEIRRADALVLTYQEVEPFEFFTGKPTFKMFREFCCLLNSDFEEVPFDILKEREVIAFSGLGDNGQFRKVLKNLGIKVKEFMSFPDHYDYSDFTPEEGEIYLTTPKDLIKLQGYENVFALNFKVKLEREEKLKKLIYRIFY

Key:
LpxK (A. aeolicus LpxK) [1] = molecular target: T1, LpxK (A. aeolicus LpxK) (Aquifex aeolicus, UniProt O67572); details: co-crystal, 4.3 mM AMP-PCP, 1 mM EDTA; active site, closed conformation
LpxK (A. aeolicus LpxK) [2] = molecular target: T1, LpxK (A. aeolicus LpxK); details: co-crystal, 10 mM ATP, 1 mM EDTA, no Mg; open conformation, bent ATP
[3] = substrate: Nc1ncnc2c1ncn2[C@@H]1O[C@H](COP(=O)(O)OP(=O)(O)OP(=O)(O)O)[C@@H](O)[C@H]1O; assay: cells, lysate or membranes; details: ATP/Mg2+ 1:1, 50 µM DSMP, pH 8.5, 30 °C, Triton X-100

| Molecule | X-ray crystal structure, 2.1 Å (LpxK (A. aeolicus LpxK) [1]) | X-ray crystal structure, 2.2 Å (LpxK (A. aeolicus LpxK) [2]) | Km [3] [µM] | kcat [3] |
| --- | --- | --- | --- | --- |
| Nc1ncnc2c1ncn2[C@@H]1O[C@H](COP(=O)(O)OP(=O)(O)CP(=O)(O)O)[C@@H](O)[C@H]1O [AMP-PCP, 5'-adenylyl (β, γ-methylene)diphosphonate] | co-crystals in complex with the non-hydrolizable analog AMP-PCP were generated and the structure solved | – | – | – |
| Nc1ncnc2c1ncn2[C@@H]1O[C@H](COP(=O)(O)OP(=O)(O)OP(=O)(O)O)[C@@H](O)[C@H]1O [ATP] | – | Rod-shaped crystals were obtained which surprisingly showed ATP bound in the open form | – | – |
| B1 | – | – | 1900 ± 500 | (2.9 ± 0.2)×10^−3 sec^−1 |
| B2 | – | – | 2900 ± 400 | (4.8 ± 0.2)×10^−4 sec^−1 |
| B3 | – | – | 4000 ± 600 | (8.3 ± 0.4)×10^−4 sec^−1 |
| B4 | – | – | 5000 ± 1000 | (4.8 ± 0.5)×10^−4 sec^−1 |
| B5 | – | – | 1300 ± 200 | (4.6 ± 0.2)×10^−3 sec^−1 |
| B6 | – | – | 2700 ± 300 | 3.9 ± 0.1 s⁻¹ |
| B7 | – | – | 1500 ± 400 | (1.3 ± 0.1)×10^−3 sec^−1 |
| B8 | – | – | 2200 ± 300 | (1.3 ± 0.1)×10^−3 sec^−1 |
| B9 | – | – | 6000 ± 1000 | (4.7 ± 0.6)×10^−1 sec^−1 |
| B10 | – | – | 2800 ± 500 | (1.5 ± 0.1)×10^−3 sec^−1 |
